Laboratory results reported in patent US7803803B2, “Tetrahydrofuro[3,2-B] pyrrol-3-ones as cathepsin K inhibitors” (Amura Therapeutics Limited, priority 2007, dated 2010).

Chains of the proteins cited; added tags and fusions are not shown. Residues count along the entry.
UniProt P43235, 115-329 limits assumed: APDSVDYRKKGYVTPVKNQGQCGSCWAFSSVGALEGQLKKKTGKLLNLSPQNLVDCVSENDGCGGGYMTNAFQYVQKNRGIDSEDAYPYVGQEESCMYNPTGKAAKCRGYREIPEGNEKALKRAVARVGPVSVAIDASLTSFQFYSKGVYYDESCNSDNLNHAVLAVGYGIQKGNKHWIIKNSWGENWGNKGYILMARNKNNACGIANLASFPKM

Biological target: Human recombinant cathepsin K (Homo sapiens, UniProt P43235)
Experiment: In vitro cathepsin Ki inhibition measurements
Type: biochemical
Conditions: read-out: Ki (nM) vs Human Cathepsin K, prior art examples of WO-A-02057270

| SMILES | Ki [nM] |
| --- | --- |
| CC(C)(C)c1ccc(C(=O)N[C@@H](Cc2ccc(Br)cc2)C(=O)N2CC[C@H]3OCC(=O)[C@H]32)cc1 | > 50000 |
| COc1ccc(C(=O)N[C@@H](CC(C)C)C(=O)N2CC[C@H]3OCC(=O)[C@H]32)cc1 | > 150 |
| COc1ccc(C[C@H](NC(=O)c2ccc(C(C)(C)C)cc2)C(=O)N2CC[C@H]3OCC(=O)[C@H]32)cc1 | > 50000 |
